{"source": "paper PMC3185582", "about": "(Viruses, 2010)", "key": {"[1]": {"conditions": "in vivo, po; cited from earlier work"}}, "data": [{"compound": "O=C(NN1C(=O)[C@@H]2[C@@H]3C=C[C@@H]([C@H]4C[C@@H]34)[C@@H]2C1=O)c1ccc(C(F)(F)F)cc1", "note": "[ST-246, Tecovirimat]", "values": [{"measurement": "exposure at the end of the study relative to Day 1", "setting": "28 day study", "result": "25% of the Day 1 exposure to equivalent exposure"}, {"measurement": "exposure at the last time point relative to first day", "setting": "three month study", "result": "nearly double"}, {"measurement": "mean times to maximum concentration", "setting": "[1]", "result": "3 to 4", "unit": "h"}]}]}
